The text below walks through data of PubChem BioAssay AID588511 (Johns Hopkins Ion Channel Center, 2011).

Sequences of proteins named here, by UniProt entry; tags and fusion partners are left off.
UniProt Q8BHY3, whole entry: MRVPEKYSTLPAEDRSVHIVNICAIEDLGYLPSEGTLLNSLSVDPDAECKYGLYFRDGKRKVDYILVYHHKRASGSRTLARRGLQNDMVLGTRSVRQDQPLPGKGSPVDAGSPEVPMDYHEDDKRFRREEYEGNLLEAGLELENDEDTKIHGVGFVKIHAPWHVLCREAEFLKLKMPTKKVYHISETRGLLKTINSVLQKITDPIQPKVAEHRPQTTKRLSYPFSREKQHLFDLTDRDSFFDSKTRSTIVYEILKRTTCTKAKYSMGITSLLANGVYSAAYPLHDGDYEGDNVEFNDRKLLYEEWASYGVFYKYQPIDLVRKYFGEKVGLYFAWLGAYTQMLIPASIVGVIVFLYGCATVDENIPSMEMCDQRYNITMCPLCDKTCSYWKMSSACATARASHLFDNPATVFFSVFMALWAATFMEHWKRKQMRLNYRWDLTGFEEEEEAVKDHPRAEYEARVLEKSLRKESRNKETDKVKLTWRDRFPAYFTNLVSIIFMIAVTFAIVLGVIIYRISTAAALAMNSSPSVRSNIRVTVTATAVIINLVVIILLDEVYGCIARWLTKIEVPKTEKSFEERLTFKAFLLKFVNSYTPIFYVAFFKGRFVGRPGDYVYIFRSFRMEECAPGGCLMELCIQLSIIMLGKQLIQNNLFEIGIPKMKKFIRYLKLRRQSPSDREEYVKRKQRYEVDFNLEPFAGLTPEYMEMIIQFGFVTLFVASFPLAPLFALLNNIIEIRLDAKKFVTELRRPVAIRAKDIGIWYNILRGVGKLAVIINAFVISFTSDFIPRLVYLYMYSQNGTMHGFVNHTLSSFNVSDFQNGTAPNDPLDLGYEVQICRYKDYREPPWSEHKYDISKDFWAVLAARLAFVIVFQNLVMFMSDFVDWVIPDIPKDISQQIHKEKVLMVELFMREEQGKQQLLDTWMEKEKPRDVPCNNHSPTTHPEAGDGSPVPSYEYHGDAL

The entries are a selection whose mix differs from that of the whole data set. The source made the active and inactive calls.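 Rule for the calls: active = ratio plate-corrected score three or more library SD toward inhibition, starting fluorescence score within five deviations; inactive = the rest.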

This test addresses Anoctamin-1 (Mus musculus) (UniProt Q8BHY3). Briefly: blockers of mouse ANO1 Ca-activated Cl channel – cell-based, HTS, primary screen (AID 588511). Conditions: HEK293 TMEM16A/YFP iodide influx fluorescence, ionomycin; at 10 µM.
With `CCCOc1ccc(C(=O)NCC2(N(C)C)CCCCC2)cc1OC`, the compound was called inactive.

For `CN1CCC(Nc2cccc(F)c2)CC1`, the compound was classed as inactive.

Consider `COc1cc(OC)c(C(=O)NCC2(N(C)C)CCCCC2)cc1OC`, for which the outcome was inactive.

Regarding `CN(C)c1cccc(C(=O)NCC2(N3CCCCC3)CCCCC2)c1`, the compound was classed as inactive.

For the compound `COc1ccc(CN(CCCl)CCCl)cc1Cl`, the call was inactive.

Take `CC(C)c1ccc(NC2CCN(C(=O)OC(C)(C)C)CC2)cc1`: the outcome was inactive.

As for `COc1ccc(NC2CCN(C(=O)OC(C)(C)C)CC2)cc1`, the call was inactive.

`CN1CCN(CCOC(=O)C(O)(c2ccccc2)c2ccccc2)CC1`: the compound was classed as inactive.

As to `O=C(NCC1(N2CCOCC2)CCCCC1)c1cc(=O)[nH]c2ccccc12`, the compound was called inactive.

As for `COc1cc(C(=O)NCC2(N3CCCCC3)CCCCC2)ccc1OC(F)F`, the compound was classed as inactive.

Consider `O=C(NCC1(N2CCCCC2)CCCCC1)c1cccc(C(F)(F)F)c1`, for which the compound was called inactive.

`O=C(NCC1(N2CCCCC2)CCCCC1)c1cccc([N+](=O)[O-])c1`: the result was inactive.

For the compound `N#CC1(Nc2ccccc2)CCN(CCc2ccccc2)CC1`, the compound was called inactive.

In the case of `CCN1CCC(Nc2ccc(Cl)cc2)CC1`, the compound was called inactive.

Take `O=C(NCC1(N2CCCCC2)CCCCC1)c1ccc(OC(F)F)cc1`: the call was inactive.

On to `Cc1ccc(OCC(C)C)c(CN(CCCl)CCCl)c1`, for which the call was inactive.

For `COc1cc(C(=O)NCC2(N(C)C)CCCCC2)ccc1OC(F)F`, the outcome was inactive.

In the case of `CCOC(=O)N1CCC(Nc2cccc(C)c2)CC1`, the call was inactive.

Regarding `CCOC(=O)N1CCC(Nc2ccc(F)cc2)CC1`, the compound was classed as inactive.

As for `COc1ccc(NC2CCN(CCc3ccccc3)CC2)c(OC)c1`, the call was inactive.

Turning to `O=C(NCC1(N2CCCCC2)CCCCC1)c1ccc(F)cc1`, the result was inactive.

In the case of `CCOc1ccc(C)cc1CN(CCCl)CCCl`, the compound was classed as inactive.

Consider `CCOC(=O)N1CCC(Nc2ccc(OC)cc2)CC1`, for which the result was inactive.

Regarding `O=C(OC1CN2CCC1CC2)C1c2ccccc2Oc2ccccc21` (centres undefined), the compound was classed as inactive.

For the compound `N#CC1(Nc2ccccc2)CCN(Cc2ccccc2)CC1`, the compound was called inactive.

Take `O=C(NCC1(N2CCOCC2)CCCCC1)c1cc2ccccc2o1`: the outcome was inactive.

In the case of `Cc1cc(C)cc(N(C(=O)c2ccccc2)C2CCN(C(=O)OC(C)(C)C)CC2)c1`, the compound was classed as inactive.

Turning to `O=C(NCC1(N2CCCCC2)CCCCC1)c1ccc(Cl)nc1`, the result was inactive.

For the compound `CSc1ccccc1C(=O)NCC1(N2CCCCC2)CCCCC1`, the result was inactive.

As for `O=C(NCC1(N2CCCCC2)CCCCC1)c1cccs1`, the result was inactive.

In the case of `O=C(NCC1(N2CCCCC2)CCCCC1)c1ccc(=O)[nH]c1`, the compound was classed as inactive.

With `CC(C)(C)OC(=O)N1CCC(N(C(=O)c2ccccc2)c2ccc(F)cc2)CC1`, the call was inactive.

Regarding `COc1ccc(C(=O)NCC2(N3CCCCC3)CCCCC2)c(OC)c1OC`, the compound was called inactive.

For the compound `COc1ccc(C(=O)NCC2(N3CCCCC3)CCCCC2)cc1`, the call was inactive.

For the compound `CCCOc1ccc(C)cc1CN(CCCl)CCCl`, the compound was called inactive.

`CN1CCC(Nc2ccc(Cl)cc2)CC1`: the outcome was inactive.

Consider `CCC(CO)(C(=O)OC1CN2CCC1CC2)c1ccccc1` (centres undefined), for which the compound was classed as inactive.

On to `COc1cccc(C(=O)N(c2cc(C)cc(C)c2)C2CCN(C(=O)OC(C)(C)C)CC2)c1`, for which the outcome was inactive.

Take `COc1cc(OC)cc(C(=O)NCC2(N3CCOCC3)CCCCC2)c1`: the result was inactive.

Take `CCCOc1ccc(C(=O)NCC2(N(C)C)CCCCC2)cc1`: the compound was classed as inactive.

Turning to `O=C(O)C1(Nc2ccccc2)CCN(Cc2ccccc2)CC1`, the compound was called inactive.

Consider `CC(C)(C)OC(=O)N1CCC(Nc2ccccc2)CC1`, for which the call was inactive.

In the case of `CN1CCC(Nc2ccc(F)c(Cl)c2)CC1`, the result was inactive.

Take `CCOc1ncccc1C(=O)NCC1(N2CCOCC2)CCCCC1`: the result was inactive.

In the case of `CN(C)c1ccc(C(=O)NCC2(N3CCCCC3)CCCCC2)cc1`, the compound was classed as inactive.

Regarding `CCN1CCC(Nc2cccc(F)c2)CC1`, the outcome was inactive.

With `Fc1ccccc1NC1CCN(Cc2ccccc2)CC1`, the call was inactive.

Consider `Cc1ccc(C(=O)NCC2(N3CCCCC3)CCCCC2)o1`, for which the result was inactive.

On to `COc1cc(OC)cc(C(=O)NCC2(N3CCCCC3)CCCCC2)c1`, for which the outcome was inactive.

`CCCN1CCC(Nc2cc(OC)cc(OC)c2)CC1`: the compound was called inactive.

Take `c1ccc(CN2CCC(Nc3ccccc3)CC2)cc1`: the call was inactive.

`CN(C)C1(CNC(=O)c2cccc(C#N)c2)CCCCC1`: the outcome was inactive.

As for `CC(C)(C)OC(=O)N1CCC(N(C(=O)c2ccccc2)c2ccc(Cl)cc2)CC1`, the compound was called inactive.

Take `N#Cc1ccc(C(=O)NCC2(N3CCCCC3)CCCCC2)cc1`: the result was inactive.

`O=C(OC1CN2CCC1CC2)C1c2ccccc2C=Cc2ccccc21` (centres undefined): the compound was classed as inactive.

`CCc1cc(C(=O)NCC2(N3CCCCC3)CCCCC2)sc1C`: the compound was classed as inactive.

For `N/C(=N\O)c1c(N)no[n+]1[O-]`, the compound was classed as inactive.

Turning to `CCOC(=O)N1CCC(Nc2ccc(C)cc2)CC1`, the call was inactive.

For the compound `COc1ccc(C(=O)NCC2(N3CCOCC3)CCCCC2)cc1OC`, the compound was classed as inactive.
